US12600705B2, “Heat shock protein modulators and anti-Huntington disease therapeutic agents” (UNIVERSITY OF PITTSBURGH-OF THE COMMONWEALTH SYSTEM OF …, priority 2020, dated 2026)

Chains of the proteins cited; added tags and fusions are not shown. Lines headed by an entry give the natural chain unless they say otherwise; changes in a name come on top.
UniProt P56524: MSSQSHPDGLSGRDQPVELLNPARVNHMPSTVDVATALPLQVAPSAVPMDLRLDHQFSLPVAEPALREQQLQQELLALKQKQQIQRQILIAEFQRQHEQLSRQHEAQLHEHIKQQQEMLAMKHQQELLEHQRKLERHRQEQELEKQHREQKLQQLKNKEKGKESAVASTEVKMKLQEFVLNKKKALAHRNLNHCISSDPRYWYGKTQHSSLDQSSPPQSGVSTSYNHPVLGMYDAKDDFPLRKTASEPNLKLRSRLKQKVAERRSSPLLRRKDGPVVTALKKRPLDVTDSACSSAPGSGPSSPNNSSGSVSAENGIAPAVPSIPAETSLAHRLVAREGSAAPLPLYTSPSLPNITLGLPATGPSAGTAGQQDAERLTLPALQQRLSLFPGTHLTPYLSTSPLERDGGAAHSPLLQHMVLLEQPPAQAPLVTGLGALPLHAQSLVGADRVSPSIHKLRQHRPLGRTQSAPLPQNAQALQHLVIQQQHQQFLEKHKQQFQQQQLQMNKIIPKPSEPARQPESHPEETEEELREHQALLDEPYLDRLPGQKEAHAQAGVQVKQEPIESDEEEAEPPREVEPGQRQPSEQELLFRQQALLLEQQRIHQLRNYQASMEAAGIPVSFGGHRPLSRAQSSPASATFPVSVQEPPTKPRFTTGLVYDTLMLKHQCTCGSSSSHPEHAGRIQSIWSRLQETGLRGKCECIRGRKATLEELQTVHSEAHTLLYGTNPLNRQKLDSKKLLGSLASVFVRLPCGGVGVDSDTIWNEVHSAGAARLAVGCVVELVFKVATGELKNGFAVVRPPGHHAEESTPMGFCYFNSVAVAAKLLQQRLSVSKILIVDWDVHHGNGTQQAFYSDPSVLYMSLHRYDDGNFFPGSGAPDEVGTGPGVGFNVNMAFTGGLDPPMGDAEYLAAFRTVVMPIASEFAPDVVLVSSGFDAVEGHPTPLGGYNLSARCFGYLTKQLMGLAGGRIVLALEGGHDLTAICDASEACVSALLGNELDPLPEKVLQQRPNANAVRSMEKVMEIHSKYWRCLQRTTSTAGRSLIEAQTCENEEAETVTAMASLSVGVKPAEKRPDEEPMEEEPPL
UniProt Q9UQL6: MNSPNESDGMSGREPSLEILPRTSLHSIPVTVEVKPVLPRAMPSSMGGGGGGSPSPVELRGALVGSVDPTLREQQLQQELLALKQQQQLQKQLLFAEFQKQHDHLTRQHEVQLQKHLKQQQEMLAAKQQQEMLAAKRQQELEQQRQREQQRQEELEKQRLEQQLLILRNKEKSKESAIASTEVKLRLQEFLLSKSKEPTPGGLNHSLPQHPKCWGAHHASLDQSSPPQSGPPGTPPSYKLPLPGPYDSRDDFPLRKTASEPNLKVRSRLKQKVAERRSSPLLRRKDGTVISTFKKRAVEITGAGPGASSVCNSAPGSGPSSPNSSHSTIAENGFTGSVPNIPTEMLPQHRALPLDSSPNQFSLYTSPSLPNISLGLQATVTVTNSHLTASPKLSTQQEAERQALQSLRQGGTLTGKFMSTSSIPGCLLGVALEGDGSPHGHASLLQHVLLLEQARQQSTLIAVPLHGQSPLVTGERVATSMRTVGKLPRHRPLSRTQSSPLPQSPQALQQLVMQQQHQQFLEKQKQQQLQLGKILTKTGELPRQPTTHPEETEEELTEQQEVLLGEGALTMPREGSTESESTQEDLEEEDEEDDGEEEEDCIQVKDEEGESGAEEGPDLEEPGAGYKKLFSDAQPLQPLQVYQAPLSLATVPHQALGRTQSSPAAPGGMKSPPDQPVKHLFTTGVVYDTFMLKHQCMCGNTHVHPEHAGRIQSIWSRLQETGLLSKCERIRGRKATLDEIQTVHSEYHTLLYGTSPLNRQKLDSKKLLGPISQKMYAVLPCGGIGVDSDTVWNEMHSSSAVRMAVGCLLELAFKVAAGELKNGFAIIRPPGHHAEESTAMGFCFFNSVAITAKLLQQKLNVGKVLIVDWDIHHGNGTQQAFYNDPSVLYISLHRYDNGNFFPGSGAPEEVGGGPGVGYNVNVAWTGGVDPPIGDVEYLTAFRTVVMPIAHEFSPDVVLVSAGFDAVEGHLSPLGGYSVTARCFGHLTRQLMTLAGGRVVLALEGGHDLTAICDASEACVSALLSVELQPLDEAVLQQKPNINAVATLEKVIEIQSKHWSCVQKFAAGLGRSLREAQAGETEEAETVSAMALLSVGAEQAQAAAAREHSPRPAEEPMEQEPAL

Experiments:
[1] = target: HDAC 4 human recombinant enzyme (Homo sapiens, UniProt P56524); experiment: HDAC 4 assay (BPS Bioscience kit); details: read-out: Percent inhibition HDAC 4
[2] = target: HDAC 5 (Homo sapiens, UniProt Q9UQL6); experiment: HDAC 5 assay (BPS Bioscience kit)
[3] = target: T1, HDAC 6 (Homo sapiens, UniProt Q9UBN7); experiment: HDAC 6 assay (BPS Bioscience kit); details: for inhibition of HDAC6: at 0.2 μM concentration; for Percent inhibition HDAC 6: footnotes b,c: tested at 200 nM, 100 nM, variable, average of 2 independent measurements
T1 sequence (Q9UBN7 1-1215): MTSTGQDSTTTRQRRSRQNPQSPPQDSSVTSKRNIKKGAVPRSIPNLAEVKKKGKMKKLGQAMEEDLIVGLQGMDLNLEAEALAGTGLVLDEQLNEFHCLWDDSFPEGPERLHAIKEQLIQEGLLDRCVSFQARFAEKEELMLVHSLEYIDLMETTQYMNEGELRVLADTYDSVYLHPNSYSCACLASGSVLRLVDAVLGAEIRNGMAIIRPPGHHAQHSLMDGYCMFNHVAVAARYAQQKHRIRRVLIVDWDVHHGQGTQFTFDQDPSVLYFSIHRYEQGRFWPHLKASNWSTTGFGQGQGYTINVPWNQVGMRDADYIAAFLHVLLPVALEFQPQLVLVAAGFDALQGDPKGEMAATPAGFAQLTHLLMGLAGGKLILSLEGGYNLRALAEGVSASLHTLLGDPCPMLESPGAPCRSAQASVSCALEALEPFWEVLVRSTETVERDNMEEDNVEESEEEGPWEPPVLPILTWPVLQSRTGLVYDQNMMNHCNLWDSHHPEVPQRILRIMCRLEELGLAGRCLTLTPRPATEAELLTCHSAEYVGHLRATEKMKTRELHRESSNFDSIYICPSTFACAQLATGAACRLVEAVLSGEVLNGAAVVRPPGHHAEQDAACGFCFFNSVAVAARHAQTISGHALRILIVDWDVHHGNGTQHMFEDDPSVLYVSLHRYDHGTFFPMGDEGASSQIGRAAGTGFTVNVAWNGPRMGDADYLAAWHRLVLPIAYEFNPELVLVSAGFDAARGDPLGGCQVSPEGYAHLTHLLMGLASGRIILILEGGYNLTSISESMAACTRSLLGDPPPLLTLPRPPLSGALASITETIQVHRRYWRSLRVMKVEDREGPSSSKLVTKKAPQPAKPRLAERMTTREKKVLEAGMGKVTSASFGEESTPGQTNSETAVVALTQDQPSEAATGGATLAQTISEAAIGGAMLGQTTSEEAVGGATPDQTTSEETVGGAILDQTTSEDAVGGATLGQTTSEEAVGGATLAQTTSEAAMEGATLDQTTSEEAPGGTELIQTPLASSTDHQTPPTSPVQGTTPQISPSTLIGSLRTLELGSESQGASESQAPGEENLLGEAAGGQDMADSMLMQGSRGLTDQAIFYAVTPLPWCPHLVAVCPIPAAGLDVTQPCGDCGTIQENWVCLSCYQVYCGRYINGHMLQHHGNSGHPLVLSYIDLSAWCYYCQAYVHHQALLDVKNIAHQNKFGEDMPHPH

[4] = target: T2, HDAC 7 (Homo sapiens, UniProt Q8WUI4); experiment: HDAC 7 assay (BPS Bioscience kit)
T2 sequence (Q8WUI4 1-952): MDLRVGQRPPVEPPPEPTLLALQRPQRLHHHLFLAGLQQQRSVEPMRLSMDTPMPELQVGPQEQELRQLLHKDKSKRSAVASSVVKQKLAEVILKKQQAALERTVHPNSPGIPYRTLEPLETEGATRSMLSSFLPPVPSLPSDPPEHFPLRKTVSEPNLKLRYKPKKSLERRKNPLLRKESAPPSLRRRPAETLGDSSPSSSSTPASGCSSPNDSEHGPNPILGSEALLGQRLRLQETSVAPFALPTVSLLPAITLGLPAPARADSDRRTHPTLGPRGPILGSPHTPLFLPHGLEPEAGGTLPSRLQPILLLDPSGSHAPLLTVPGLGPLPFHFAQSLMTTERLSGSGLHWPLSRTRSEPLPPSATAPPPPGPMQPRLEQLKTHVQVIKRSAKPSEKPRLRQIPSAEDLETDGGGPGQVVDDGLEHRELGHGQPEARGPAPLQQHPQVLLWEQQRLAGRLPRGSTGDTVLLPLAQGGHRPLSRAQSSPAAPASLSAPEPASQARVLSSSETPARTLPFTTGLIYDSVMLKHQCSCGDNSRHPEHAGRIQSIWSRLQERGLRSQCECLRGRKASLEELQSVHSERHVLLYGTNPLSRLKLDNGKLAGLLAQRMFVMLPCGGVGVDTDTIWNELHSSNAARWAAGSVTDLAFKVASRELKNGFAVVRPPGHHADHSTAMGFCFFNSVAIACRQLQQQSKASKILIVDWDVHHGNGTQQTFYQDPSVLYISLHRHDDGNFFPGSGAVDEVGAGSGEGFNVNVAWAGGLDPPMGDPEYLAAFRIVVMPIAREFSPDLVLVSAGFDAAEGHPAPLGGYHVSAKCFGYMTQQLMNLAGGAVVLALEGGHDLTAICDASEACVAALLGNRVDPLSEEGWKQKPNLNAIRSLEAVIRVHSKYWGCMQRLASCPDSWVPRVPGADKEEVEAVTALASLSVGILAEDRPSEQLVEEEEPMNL

[5] = target: T3, HDAC 8 (Homo sapiens, UniProt Q9BY41); experiment: HDAC 8 assay (BPS Bioscience kit); details: footnotes a,c: tested at 1 uM; 100 nM; average of 2 independent measurements
T3 sequence (Q9BY41 1-377): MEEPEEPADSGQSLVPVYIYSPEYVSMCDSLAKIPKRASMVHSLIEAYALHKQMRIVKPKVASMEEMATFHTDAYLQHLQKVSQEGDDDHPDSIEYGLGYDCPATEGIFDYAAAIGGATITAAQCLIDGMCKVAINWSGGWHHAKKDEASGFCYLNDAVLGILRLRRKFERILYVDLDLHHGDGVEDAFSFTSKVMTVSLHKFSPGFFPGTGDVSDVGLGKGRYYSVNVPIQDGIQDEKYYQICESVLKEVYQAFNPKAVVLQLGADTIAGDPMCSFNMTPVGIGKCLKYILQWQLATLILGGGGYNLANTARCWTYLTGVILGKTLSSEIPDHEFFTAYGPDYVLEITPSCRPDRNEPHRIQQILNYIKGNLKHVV

[6] = tested on: HEK293 cells that express an HTT exon containing 17 glutamine repeats (HTT17Q-mCherry); experiment: Huntington's Disease (HD) model: protein aggregates (puncta) per cell in HEK293H cells transfected with HTT17Q-mCherry; details: Example 1, FIG. 2; 10 μM compound, 6 h

In the case of CCOC(=O)C1=CN(CCCC(=O)NO)S(=O)(=O)NC1c1ccc(Cl)cc1Cl (stereo not shown) [Compound 12g, Ethyl 3-(2,4-dichlorophenyl)-6-(4-(hydroxyamino)-4-oxobutyl)-3,6-dihydro-2H-1,2,6-thiadiazine-4-carboxylate 1,1-dioxide], the inhibition at 1 µM [1] is reported as 5%, the “Percent inhibition HDAC 5” value ([2]; Compound tested at 200 nM) is reported as “NIA” and the “inhibition of HDAC6” value [3] is reported as “not inhibited”. The “Percent inhibition HDAC 6” value [3] was 10%^d, the “Percent inhibition HDAC 7” value ([4]; Compound tested at 100 nM) was “NIA” and the “Percent inhibition HDAC 8” value [5] was 46%^e. The “Effect on aggregate suppression compared to the MAL1-271 positive control” value [6] was “slightly greater effect”.

In the case of CCOC(=O)C1=CN(Cc2ccc(C(=O)NO)cc2)S(=O)(=O)NC1c1ccc(Cl)cc1Cl (stereo not shown) [Compound 12h, Ethyl 3-(2,4-dichlorophenyl)-6-(4-(hydroxycarbamoyl)benzyl)-3,6-dihydro-2H-1,2,6-thiadiazine-4-carboxylate 1,1-dioxide], the inhibition at 1 µM [1] is reported as 23%, the inhibition at 0.2 µM ([2]; read-out: Percent inhibition HDAC 5) is reported as 19% and the “inhibition of HDAC6” value [3] is reported as “not inhibited”. For the same compound, the “Percent inhibition HDAC 6” value [3] was 20%^d, the inhibition at 0.1 µM ([4]; read-out: Percent inhibition HDAC 7) was 40% and the inhibition at 1 µM ([4]; read-out: inhibition of HDAC 7) was 40%. For the same compound, the “Percent inhibition HDAC 8” value [5] was 58%^e and the “Effect on aggregate suppression compared to the MAL1-271 positive control” value [6] was “less effective”.

Compound O=C(CCCCCCC(=O)Nc1ccccc1)NO [SAHA, Vorinostat, reference compound] has an inhibition at 0.1 µM ([3]; read-out: Percent Inhibition) of 82%.
